Assays:
[1] = tested on: CD69 in human whole blood; test: Induction of CD69 in human whole blood (hWB); conditions: read-out: hWB CD69 EC50; heparinized human whole blood, 17 h, CD69 surface staining; 100% set to 1 uM resiquimod; average where assay repeated
Protocol: The induction of Type I interferon (IFN) MX-1 genes and the B-cell activation marker CD69 are downstream events that occur upon activation of the TLR7 pathway. The following is a human whole blood assay that measures their induction in response to a TLR7 agonist.
Heparinized human whole blood was harvested from human subjects and treated with test TLR7 agonist compounds at 1 mM. The blood was diluted with RPMI 1640 media and Echo was used to predot 10 nL per well giving a final concentration of 1 uM (10 nL in 10 uL of blood). After mixing on a shaker for 30 sec, the plates were covered and placed in a 37° C. chamber for o/n=17 hrs. Fixing/lysis buffer was prepared (5×->1×in H2O, warm at 37° C.; Cat# BD 558049) and kept the perm buffer (on ice) for later use.
For surface markers staining (CD69): prepared surface Abs: 0.045 ul hCD14-FITC (ThermoFisher Cat # MHCD1401)+0.6 ul hCD19-ef450 (ThermoFisher Cat #48-0198-42)+1.5 ul hCD69-PE (cat# BD555531)+0.855 ul FACS buffer. […]
Centrifuge at 2000 rpm for 5 minutes aspirate with HCS plate washer, mix on shaker for 30 sec and then wash with 70 uL in dPBS and pelleted 2 xs (2000 rpm for 5 min) and 50 ul wash in FACS buffer pelleted 1 xs(2000 rpm for 5 min). […] Resuspend 20 ul (35 uL total per well) of FACS buffer and cover with foil and place in 4° C. to read the following day. Plates were read on iQuePlus. […]

Chains of the proteins cited; added tags and fusions are not shown. Residues count along the entry.
UniProt Q9NYK1, 27-1049 limits assumed: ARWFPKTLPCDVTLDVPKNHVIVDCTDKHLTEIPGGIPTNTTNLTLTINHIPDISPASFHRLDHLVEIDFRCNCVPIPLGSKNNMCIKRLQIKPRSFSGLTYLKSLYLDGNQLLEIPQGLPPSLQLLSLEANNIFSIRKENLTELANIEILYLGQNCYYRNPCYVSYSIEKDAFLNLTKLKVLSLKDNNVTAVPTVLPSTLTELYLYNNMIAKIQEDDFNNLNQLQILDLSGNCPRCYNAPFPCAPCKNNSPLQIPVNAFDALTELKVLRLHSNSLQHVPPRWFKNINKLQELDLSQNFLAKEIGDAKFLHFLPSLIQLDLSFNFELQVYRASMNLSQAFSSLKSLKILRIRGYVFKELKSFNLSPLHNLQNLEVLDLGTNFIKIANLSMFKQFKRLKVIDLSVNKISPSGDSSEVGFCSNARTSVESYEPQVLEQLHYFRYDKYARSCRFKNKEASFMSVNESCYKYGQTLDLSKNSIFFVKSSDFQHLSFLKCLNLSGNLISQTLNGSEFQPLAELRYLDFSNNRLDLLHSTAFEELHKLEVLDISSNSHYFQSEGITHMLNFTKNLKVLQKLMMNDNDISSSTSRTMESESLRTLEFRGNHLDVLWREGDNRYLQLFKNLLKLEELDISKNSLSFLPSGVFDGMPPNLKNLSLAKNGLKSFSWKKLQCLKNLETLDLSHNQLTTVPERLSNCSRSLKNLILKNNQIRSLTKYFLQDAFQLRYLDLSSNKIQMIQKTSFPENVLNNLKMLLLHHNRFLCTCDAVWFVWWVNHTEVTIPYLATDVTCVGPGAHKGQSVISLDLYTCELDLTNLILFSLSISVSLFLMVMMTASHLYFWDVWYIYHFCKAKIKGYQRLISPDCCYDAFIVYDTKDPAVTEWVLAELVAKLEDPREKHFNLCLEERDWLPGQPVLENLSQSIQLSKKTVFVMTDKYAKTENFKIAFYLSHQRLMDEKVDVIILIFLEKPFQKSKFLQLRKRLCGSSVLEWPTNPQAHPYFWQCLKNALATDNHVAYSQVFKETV

[2] = target: human TLR7 (Homo sapiens, UniProt Q9NYK1); test: Human TLR7 agonist activity (hTLR7 reporter) assay in HEK-Blue TLR7 cells, SEAP readout; conditions: read-out: hTLR7 Reporter EC50, 18 h treatment, average where assay repeated
Protocol: This procedure describes a method for assaying human TLR7 (hTLR7) agonist activity of the compounds disclosed in this specification.
HEK-Blue™ TLR7 cells were added to each well of a 384-well tissue-culture plate (15,000 cells per well) and incubated 16-18 h at 37° C., 5% CO2. Compounds (100 nl) were dispensed into wells containing the HEK-Blue™ TLR cells and the treated cells were incubated at 37° C., 5% CO2. After 18 h treatment ten microliters of freshly-prepared Quanti-Blue™ reagent (Invivogen) was added to each well, incubated for 30 min (37° C., 5% CO2) and SEAP levels measured using an Envision plate reader (OD=620 nm). The half maximal effective concentration values (EC50; compound concentration which induced a response halfway between the assay baseline and maximum) were calculated.

EC50 [1]: 8.4 nM
EC50 [2]: 49.8 nM
Structure (SMILES): CCC[C@@H](CCO)Nc1nc(N)nc2cnn(Cc3ncc(C4=CC5(CCN(CC6CC6)CC5)C4)cc3OC)c12

From patent publication US20230122249A1, “1H-PYRAZOLO[4,3-d]PYRIMIDINE COMPOUNDS AS TOLL-LIKE RECEPTOR 7 (TLR7) AGONISTS” (BRISTOL-MYERS SQUIBB COMPANY, priority 2020, published 2023)
